# Permeability data for macrocyclic peptides

Values of Townsend et al. 2020, doi:10.26434/chemrxiv.13335941.v1, as listed in CycPeptMPDB.

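Conditions beyond the assay type are not listed; see the original paper. Other peptides of the study may be missing here. Peptides that the database sets to -10, its floor, are left out.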

PAMPA measures passive passage through an artificial lipid membrane. Values are log10 P with P in cm/s, so -5 is more permeable than -7.

structure (SMILES)	PAMPA (log10 cm/s)
CC(C)C[C@H]1NC(=O)C[C@H](Cc2ccccc2)NC(=O)[C@H](Cc2ccccc2)NC(=O)CN(Cc2ccccc2)C(=O)[C@@H]2CCCN2C(=O)C[C@H](Cc2ccccc2)NC1=O	-6.20
CC(C)C[C@H]1NC(=O)[C@@H]2CCCN2C(=O)C[C@H](Cc2ccccc2)NC(=O)CN(Cc2ccccc2)C(=O)[C@@H](C)N(C)C(=O)[C@@H]2CCCN2C(=O)[C@H](Cc2ccccc2)NC1=O	-6.81
C[C@H]1C(=O)N(Cc2ccccc2)CC(=O)N(Cc2ccccc2)CC(=O)N2CCC[C@@H]2C(=O)N(Cc2ccccc2)CC(=O)N[C@@H](Cc2ccccc2)C(=O)N1C	-6.22
CCCN1CC(=O)N(Cc2ccccc2)CC(=O)N(Cc2ccccc2)CC(=O)N2CCC[C@H]2C(=O)N(Cc2ccccc2)CC(=O)N[C@@H](Cc2ccccc2)C1=O	-5.87
CCCN1CC(=O)N[C@H](CC(C)C)C(=O)N(C)[C@H](CC(C)C)C(=O)N2CCC[C@H]2C(=O)N(C)[C@H](CC(C)C)C(=O)N[C@@H](Cc2ccccc2)C1=O	-4.83
CCCN1CC(=O)N(Cc2ccccc2)CC(=O)N(Cc2ccccc2)CC(=O)N2CCC[C@@H]2C(=O)N(Cc2ccccc2)CC(=O)N[C@@H](Cc2ccccc2)C1=O	-5.92
O=C1CN(Cc2ccccc2)C(=O)C[C@H](Cc2ccccc2)NC(=O)[C@H]2CCCN2C(=O)[C@H](Cc2ccccc2)NC(=O)CN(Cc2ccccc2)C(=O)[C@@H]2CCCN2C(=O)C[C@H](Cc2ccccc2)N1	-6.09
C[C@@H]1C(=O)N(Cc2ccccc2)CC(=O)N[C@@H](Cc2ccccc2)CC(=O)N2CCC[C@@H]2C(=O)N(Cc2ccccc2)CC(=O)N[C@@H](Cc2ccccc2)C(=O)N2CCC[C@@H]2C(=O)N1C	-7.79
CC(C)C[C@@H]1C(=O)N[C@@H](Cc2ccccc2)C(=O)N[C@@H](Cc2ccccc2)CC(=O)N(C)[C@@H](CC(C)C)C(=O)N[C@@H](Cc2ccccc2)CC(=O)N2CCC[C@@H]2C(=O)N1C	-4.99
CC(C)C[C@@H]1C(=O)N(C)[C@H](CC(C)C)C(=O)N2CCC[C@H]2C(=O)N[C@H](CC(C)C)C(=O)N[C@@H](Cc2ccccc2)C(=O)N[C@@H](Cc2ccccc2)CC(=O)N1C	-5.22
CC(C)C[C@H]1NC(=O)C[C@H](Cc2ccccc2)NC(=O)[C@@H]2CCCN2C(=O)[C@H](Cc2ccccc2)NC(=O)CN(Cc2ccccc2)C(=O)[C@H]2CCCN2C(=O)CN(Cc2ccccc2)C1=O	-6.07
CC(C)C[C@@H]1NC(=O)[C@H]2CCCN2C(=O)CN(Cc2ccccc2)C(=O)CN(Cc2ccccc2)C(=O)[C@H](C)NC(=O)[C@H]2CCCN2C(=O)[C@H](Cc2ccccc2)NC1=O	-6.76
CC(C)C[C@@H]1C(=O)N[C@@H](Cc2ccccc2)C(=O)N[C@@H](Cc2ccccc2)CC(=O)N(Cc2ccccc2)CC(=O)N[C@@H](Cc2ccccc2)CC(=O)N2CCC[C@H]2C(=O)N1C	-5.47
CCCN1CC(=O)N(Cc2ccccc2)CC(=O)N[C@H](CC(C)C)C(=O)N2CCC[C@H]2C(=O)N[C@H](CC(C)C)C(=O)N[C@@H](Cc2ccccc2)C1=O	-5.45

Extract of 2 entries:

| structure (SMILES) | PAMPA (log10 cm/s) |
|---|---|
| C[C@@H]1C(=O)N(Cc2ccccc2)CC(=O)N[C@@H](Cc2ccccc2)CC(=O)N2CCC[C@@H]2C(=O)N(Cc2ccccc2)CC(=O)N[C@@H](Cc2ccccc2)C(=O)N2CCC[C@@H]2C(=O)N1C | -7.79 |
| CC(C)C[C@H]1NC(=O)[C@@H]2CCCN2C(=O)C[C@H](Cc2ccccc2)NC(=O)CN(Cc2ccccc2)C(=O)[C@@H](C)N(C)C(=O)[C@@H]2CCCN2C(=O)[C@H](Cc2ccccc2)NC1=O | -6.81 |